{"source": "patent US8143288B2", "about": "“Inhibitors of HCV replication” (priority 2005, dated 2012)", "key": {"[1]": {"test_system": "HCV 1b-377-neo replicon cells", "assay": "HCV replicon FRET assay", "type": "cell-based", "conditions": "72 hours", "source_text": "The HCV replicon cell line was isolated from colonies as described by Lohman, et. al. (Science 1999, 285, 110-113, expressly incorporated by reference in its entirety) and used for all experiments. The HCV replicon has the nucleic acid sequence set forth in EMBL Accession No.: AJ242652, the coding sequence of which is from nt 1801 to 7758.\nThe coding sequence of the published HCV replicon was synthesized by Operon Technologies, Inc. (Alameda, Calif.), and the fall-length replicon was then assembled in plasmid pGem9zf(+) (Promega, Madison, Wis.) using standard molecular biology techniques. […]\nTo perform the HCV FRET screening assay, 96-well cell culture plates were used. The FRET peptide (Anaspec, Inc., San Jose, Calif.) (Taliani et al., Anal. Biochem. 1996, 240, 60-67, hereby incorporated by reference in its entirety) contains a fluorescence donor, EDANS, near one end of the peptide and an acceptor, DABCYL, near the other end. The fluorescence of the peptide is quenched by […] resonance energy transfer (RET) between the donor and the acceptor, but as the NS3 protease cleaves the peptide the products are released from RET quenching and the fluorescence of the donor becomes apparent. […]"}, "HCV replicon": {"test_system": "HCV replicon", "assay": "Combination studies in HCV replicon system (FRET, method of Chou)", "type": "cell-based", "experimental": "Since clinical drug resistance often develops in viral infections following single-agent therapies, there is a need to assess the additive, antagonistic, or synergistic properties of combination therapies. […] Drugs were tested at eleven concentrations each, diluted in DMSO by 3-fold dilutions. The highest concentration used for the four HCV inhibitors was 0.1 μM for Example 3 and 20 μM for the three other HCV antivirals. […] The drugs were tested as monotherapies and in combination with Example 3 at various concentration ratios. Cells were exposed to compounds for 72 hours and the amount of HCV inhibition was then determined using the FRET assay. The potential cytotoxicities of these combined agents were also analyzed in parallel by Alamar blue staining. The degree of antagonism or synergy was determined over a range of drug concentrations, and the combination response curves were fit to assess the antiviral effects of the drug treatment combinations. The concentration ratios were analyzed using the method of Chou. Table 5 reports the combination indices (CI) and the asymptotic confidence intervals at the different concentration ratios. All combination indices were tested for departure from additivity using isobologram methods."}, "[2]": {"conditions": "combined with Example 3, molar ratio 1:1"}, "[3]": {"conditions": "combined with Example 3, molar ratio 2.5:1"}}, "data": [{"substance": "Intron A: Intron A, tested in combination with Example 3; highest concentration 5,000 IU/mL", "values": [{"measurement": "EC50 in monotherapy", "setting": "[1]", "value": 2, "unit": "U/mL"}, {"measurement": "CI at HCV inhibition of: 75%", "setting": "HCV replicon; [2]", "value": "0.88 +/− 0.15"}, {"measurement": "CI at HCV inhibition of: 90%", "setting": "HCV replicon; [2]", "value": "0.72 +/− 0.20"}, {"measurement": "CI at HCV inhibition of: 95%", "setting": "HCV replicon; [2]", "value": "0.64 +/− 0.22"}, {"measurement": "Overall Result", "setting": "HCV replicon; [2]", "value": "Additive/Synergistic"}, {"measurement": "CI at HCV inhibition of: 50%", "setting": "HCV replicon; combined with Example 3, molar ratio 1:1 (first number Example 3)", "value": "1.09 +/− 0.13"}, {"measurement": "CI at HCV inhibition of: 75%", "setting": "HCV replicon; [3]", "value": "0.82 +/− 0.16"}, {"measurement": "CI at HCV inhibition of: 90%", "setting": "HCV replicon; [3]", "value": "0.71 +/− 0.22"}, {"measurement": "CI at HCV inhibition of: 95%", "setting": "HCV replicon; [3]", "value": "0.66 +/− 0.26"}, {"measurement": "Overall Result", "setting": "HCV replicon; [3]", "value": "Additive/Synergistic"}, {"measurement": "CI at HCV inhibition of: 50%", "setting": "HCV replicon; combined with Example 3, molar ratio 2.5:1 (first number Example 3)", "value": "0.99 +/− 0.13"}, {"measurement": "combination response", "setting": "HCV replicon; in combination with Example 3, replicon cells, 72 hours", "value": "additivity at both the 50 and 75% effective levels"}]}]}
